The record followed here is patent publication US9879008B2, “2,3,4,6-tetra-substituted benzene-1,5-diamine derivatives, preparation method therefor and medicinal use thereof” (SHANGHAI HAIYAN PHARMACEUTICAL TECHNOLOGY CO., LTD., priority 2014, dated 2018).

Amino acid sequences for entries named in this document (tags omitted). Residues count along the entry.
UniProt P00533, 25-1210 limits assumed: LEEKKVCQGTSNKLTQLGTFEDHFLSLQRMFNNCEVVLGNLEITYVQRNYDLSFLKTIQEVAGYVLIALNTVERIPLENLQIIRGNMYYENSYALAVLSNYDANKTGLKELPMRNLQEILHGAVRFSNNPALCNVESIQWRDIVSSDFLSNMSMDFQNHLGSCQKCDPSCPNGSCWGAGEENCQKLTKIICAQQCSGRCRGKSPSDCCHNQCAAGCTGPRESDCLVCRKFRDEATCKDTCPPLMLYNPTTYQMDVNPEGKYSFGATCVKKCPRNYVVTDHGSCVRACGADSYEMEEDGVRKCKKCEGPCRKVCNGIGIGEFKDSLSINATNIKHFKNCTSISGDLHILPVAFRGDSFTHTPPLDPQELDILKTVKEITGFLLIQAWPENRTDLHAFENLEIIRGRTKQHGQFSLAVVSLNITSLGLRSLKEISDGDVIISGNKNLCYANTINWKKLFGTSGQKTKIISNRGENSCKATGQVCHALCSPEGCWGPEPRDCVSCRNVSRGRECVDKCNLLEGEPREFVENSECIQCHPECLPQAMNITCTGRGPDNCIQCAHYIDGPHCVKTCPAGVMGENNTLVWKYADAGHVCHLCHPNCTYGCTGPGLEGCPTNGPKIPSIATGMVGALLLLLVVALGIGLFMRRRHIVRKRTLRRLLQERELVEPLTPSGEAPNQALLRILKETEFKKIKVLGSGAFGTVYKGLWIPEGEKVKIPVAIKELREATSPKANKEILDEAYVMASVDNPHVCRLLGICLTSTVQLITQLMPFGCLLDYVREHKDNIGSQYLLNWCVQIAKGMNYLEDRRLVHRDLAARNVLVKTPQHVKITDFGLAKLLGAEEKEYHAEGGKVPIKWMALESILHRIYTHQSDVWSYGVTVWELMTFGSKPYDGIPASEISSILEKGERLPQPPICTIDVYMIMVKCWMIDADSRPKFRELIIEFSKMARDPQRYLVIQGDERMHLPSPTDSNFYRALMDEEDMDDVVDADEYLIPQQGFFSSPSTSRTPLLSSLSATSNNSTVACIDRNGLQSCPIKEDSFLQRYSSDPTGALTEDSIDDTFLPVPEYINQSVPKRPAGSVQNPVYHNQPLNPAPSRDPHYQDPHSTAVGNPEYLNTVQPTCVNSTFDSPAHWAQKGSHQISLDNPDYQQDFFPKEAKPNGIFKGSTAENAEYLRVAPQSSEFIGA

Where two headings read alike, the source gives them in different places.

The subject of one data set is A431 cells. In words: ELISA assay for cell activity, EGF-treated A431 cells.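 Also: Serum-starved A431 cells, ELISA on lysates read as OD450 minus OD570, inhibition scaled between EGF-stimulated wells (0%) and unstimulated cell control (100%), DMSO 0.5% final.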 In kind it is cell-based.
Another data set deals with A431 cell. In words: MTT cytostatic activity, A431 cell. It is filed as cell-based.
Data set [1] can be described thus: Pharmacokinetics in vivo in rats (LC/MS/MS plasma concentration). Set-up: species or system SD rats. The note with it: rat; intravenous 1 mg/kg, intragastric 20 mg/kg (route per parameter not given); tested form: formate.
Data set [2] can be described thus: Pharmacokinetics in vivo in mice (LC/MS/MS plasma concentration). Set-up: species or system CD1 mice. The note with it: intravenous 1 mg/kg, intragastric 5 mg/kg (route per parameter not given), tested form: formate.
A further data set deals with NIH3T3 cell. In words: MTT cytotoxicity against NIH3T3 cells.
The target of another data set is wild-type EGFR kinase (Homo sapiens, UniProt P00533). Kind of data set: z-lyte inhibition test against wild-type EGFR kinase.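 Also: reaction volume 10 µL holding 0.8 ng/µL enzyme and 2 µM Tyr04 substrate, with DMSO at 2% once compounds are present.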 It is filed as biochemical. The note with it: read-out: EGFR WT (IC50/nM), 10 μM ATP.

In the case of `C=CC(=O)Nc1cc(Nc2ncc(Cl)c(OC3CN(S(C)(=O)=O)C3)n2)c(OC)cc1N1CCC(N(C)C)CC1`, the IC50 is 715 nM with A431 cells (read-out: A431 cell (IC50/nM), compound 1 h, then EGF 45 min, tested form: formate); 814 nM with A431 cell (read-out: A431 cell (IC50/nM), 72 h, tested form: formate); more than 10000 nM in the data set on NIH3T3 cell (read-out: MTT assay against NIH3T3 cell (IC50/nM), 72 h, tested form: formate). The “Area under the curve AUC” value came out at 2619 ng·h/mL in data set [1] and 605 ng·h/mL in data set [2]. In addition, the “Clearance CL” value in data set [1] came to 56.5 mL/min/kg; in data set [2], 57.9 mL/min/kg. Moreover, the “Half-life T1/2” value in data set [1] stood at 3.84 h; in data set [2], 3.82 h.

With `C=CC(=O)Nc1cc(Nc2ncc(Cl)c(SC3CN(C(C)=O)C3)n2)c(OC)cc1N1CCC(N(C)C)CC1`, the IC50 came to 1470 nM with A431 cells (read-out: A431 cell (IC50/nM), compound 1 h, then EGF 45 min); 3950 nM in the data set on A431 cell (read-out: A431 cell (IC50/nM), 72 h); 176 nM at wild-type EGFR kinase; 9040 nM with NIH3T3 cell (read-out: MTT assay against NIH3T3 cell (IC50/nM), 72 h).
